Assay results taken from PMC4734667 (PLoS ONE, 2016).

By UniProt entry, the sequences of proteins in these tests, tags left out. Residues count along the entry.
UniProt Q13224, 27-1484: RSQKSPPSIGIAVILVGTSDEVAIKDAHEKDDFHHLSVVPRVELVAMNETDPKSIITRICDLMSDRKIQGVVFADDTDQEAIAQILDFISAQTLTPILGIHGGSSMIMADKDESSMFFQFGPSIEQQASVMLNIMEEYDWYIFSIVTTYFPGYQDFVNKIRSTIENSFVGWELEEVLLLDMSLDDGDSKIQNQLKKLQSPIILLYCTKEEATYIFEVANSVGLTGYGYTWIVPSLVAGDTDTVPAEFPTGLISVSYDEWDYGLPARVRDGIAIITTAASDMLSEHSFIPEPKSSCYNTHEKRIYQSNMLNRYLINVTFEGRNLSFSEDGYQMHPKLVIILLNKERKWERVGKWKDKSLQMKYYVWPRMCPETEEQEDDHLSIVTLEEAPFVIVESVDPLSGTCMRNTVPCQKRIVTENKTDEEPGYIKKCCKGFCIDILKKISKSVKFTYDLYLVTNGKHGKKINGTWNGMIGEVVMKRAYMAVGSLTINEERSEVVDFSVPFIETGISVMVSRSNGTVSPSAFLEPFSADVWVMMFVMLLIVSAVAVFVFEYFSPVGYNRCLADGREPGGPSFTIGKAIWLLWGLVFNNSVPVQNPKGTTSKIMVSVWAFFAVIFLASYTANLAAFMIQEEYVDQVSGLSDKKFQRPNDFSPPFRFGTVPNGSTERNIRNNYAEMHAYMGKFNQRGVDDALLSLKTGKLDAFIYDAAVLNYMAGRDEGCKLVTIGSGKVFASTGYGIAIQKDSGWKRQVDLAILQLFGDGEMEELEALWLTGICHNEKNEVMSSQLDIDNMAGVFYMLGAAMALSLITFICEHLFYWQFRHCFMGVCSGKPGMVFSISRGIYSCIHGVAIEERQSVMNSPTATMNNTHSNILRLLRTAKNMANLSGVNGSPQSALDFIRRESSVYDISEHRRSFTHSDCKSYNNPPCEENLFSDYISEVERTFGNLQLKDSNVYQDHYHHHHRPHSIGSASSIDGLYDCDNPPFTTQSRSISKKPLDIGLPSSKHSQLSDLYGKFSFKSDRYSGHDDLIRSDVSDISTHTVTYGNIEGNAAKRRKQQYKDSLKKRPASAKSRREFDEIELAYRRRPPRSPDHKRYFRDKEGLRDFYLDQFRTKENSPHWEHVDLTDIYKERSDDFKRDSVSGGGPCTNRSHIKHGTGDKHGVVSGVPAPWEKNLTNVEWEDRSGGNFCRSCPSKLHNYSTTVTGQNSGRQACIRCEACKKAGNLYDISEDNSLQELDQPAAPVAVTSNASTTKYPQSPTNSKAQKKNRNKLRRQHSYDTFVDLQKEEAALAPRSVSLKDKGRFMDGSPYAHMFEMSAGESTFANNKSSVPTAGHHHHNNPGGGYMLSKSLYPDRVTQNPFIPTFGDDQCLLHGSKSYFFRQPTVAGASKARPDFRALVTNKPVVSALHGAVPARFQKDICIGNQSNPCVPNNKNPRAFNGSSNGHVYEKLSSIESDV
UniProt O15399, 28-1336: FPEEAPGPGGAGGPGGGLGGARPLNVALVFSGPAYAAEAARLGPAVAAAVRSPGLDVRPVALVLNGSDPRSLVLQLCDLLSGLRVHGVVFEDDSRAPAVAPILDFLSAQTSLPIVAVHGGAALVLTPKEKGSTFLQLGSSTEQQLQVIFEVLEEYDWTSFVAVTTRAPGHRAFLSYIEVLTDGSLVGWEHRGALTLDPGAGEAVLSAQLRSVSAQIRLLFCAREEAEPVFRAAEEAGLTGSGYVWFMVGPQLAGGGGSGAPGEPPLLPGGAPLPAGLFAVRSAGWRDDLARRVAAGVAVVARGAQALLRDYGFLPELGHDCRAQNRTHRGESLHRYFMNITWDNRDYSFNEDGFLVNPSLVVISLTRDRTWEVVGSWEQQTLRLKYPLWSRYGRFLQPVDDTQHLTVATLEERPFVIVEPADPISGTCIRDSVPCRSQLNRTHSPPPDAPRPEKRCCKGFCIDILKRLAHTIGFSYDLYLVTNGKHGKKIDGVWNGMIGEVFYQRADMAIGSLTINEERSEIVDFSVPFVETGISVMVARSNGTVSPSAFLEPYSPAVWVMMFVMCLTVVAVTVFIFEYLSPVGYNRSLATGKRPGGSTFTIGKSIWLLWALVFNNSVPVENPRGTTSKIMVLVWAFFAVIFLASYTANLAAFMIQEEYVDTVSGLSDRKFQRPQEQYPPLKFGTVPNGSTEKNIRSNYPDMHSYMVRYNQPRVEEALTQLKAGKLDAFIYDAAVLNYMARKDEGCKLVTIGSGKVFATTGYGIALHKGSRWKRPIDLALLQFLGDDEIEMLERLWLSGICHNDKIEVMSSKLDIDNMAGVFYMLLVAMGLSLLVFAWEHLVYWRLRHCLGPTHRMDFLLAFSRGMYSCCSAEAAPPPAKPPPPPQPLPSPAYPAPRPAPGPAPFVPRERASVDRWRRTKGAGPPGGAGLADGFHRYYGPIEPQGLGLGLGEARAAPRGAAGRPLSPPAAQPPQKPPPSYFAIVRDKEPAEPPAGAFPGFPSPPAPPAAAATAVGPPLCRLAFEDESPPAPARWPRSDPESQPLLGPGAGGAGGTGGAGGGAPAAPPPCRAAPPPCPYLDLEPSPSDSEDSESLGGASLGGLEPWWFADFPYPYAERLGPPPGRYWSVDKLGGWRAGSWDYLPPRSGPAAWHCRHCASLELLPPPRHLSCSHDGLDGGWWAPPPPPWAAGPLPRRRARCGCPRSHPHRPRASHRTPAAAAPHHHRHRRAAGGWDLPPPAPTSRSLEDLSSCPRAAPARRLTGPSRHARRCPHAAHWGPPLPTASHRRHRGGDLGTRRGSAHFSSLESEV
UniProt Q12879, 23-1464: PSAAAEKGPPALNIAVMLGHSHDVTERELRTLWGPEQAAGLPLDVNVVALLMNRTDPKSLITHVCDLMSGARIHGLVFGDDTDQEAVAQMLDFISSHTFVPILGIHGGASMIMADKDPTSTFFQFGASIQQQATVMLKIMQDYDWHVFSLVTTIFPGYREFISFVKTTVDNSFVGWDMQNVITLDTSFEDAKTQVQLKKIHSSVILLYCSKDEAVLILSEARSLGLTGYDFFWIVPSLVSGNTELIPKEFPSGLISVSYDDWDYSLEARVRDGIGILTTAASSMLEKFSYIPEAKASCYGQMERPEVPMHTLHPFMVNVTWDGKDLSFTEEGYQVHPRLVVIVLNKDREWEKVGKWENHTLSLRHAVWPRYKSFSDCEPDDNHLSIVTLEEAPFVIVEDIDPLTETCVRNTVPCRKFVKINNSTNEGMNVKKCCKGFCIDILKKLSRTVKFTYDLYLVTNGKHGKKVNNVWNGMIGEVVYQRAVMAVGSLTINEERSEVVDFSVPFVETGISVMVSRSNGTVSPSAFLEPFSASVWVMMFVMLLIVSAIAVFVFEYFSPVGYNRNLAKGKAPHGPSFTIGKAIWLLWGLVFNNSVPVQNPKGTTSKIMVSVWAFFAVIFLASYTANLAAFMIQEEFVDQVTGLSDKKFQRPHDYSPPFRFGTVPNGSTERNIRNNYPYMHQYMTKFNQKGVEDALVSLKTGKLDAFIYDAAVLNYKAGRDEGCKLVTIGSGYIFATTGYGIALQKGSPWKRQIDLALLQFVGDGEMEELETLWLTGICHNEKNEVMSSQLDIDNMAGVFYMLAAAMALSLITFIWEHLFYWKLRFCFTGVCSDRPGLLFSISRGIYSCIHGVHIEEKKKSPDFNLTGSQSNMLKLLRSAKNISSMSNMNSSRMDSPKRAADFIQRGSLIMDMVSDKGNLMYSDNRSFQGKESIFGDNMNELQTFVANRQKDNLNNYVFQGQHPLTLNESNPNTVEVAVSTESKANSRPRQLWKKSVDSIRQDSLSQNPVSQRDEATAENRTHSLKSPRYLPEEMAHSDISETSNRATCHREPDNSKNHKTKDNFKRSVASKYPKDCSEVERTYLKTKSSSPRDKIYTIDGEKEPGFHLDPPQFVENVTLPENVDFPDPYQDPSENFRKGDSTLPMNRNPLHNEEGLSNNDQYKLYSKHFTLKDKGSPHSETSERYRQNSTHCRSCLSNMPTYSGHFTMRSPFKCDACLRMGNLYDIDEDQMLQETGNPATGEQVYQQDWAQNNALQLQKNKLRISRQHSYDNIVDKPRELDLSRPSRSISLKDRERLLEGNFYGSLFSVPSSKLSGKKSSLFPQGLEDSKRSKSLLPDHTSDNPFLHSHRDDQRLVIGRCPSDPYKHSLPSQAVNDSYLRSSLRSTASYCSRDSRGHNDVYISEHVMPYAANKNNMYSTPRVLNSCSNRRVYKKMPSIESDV

Experiments:
Type in all cases: cell-based
human GluN2B = biological target: T1, human GluN2B (Homo sapiens, UniProt Q05586+Q13224); assay: Ca2+ fluorescence (fluo-8) assay in HEK cells expressing GluN2B; conditions: inhibition of Ca2+ response, glutamate and glycine 3 μM each, read-out: GluN2B IC50 (nM) ± SEM (n)
T1 construct: expressed in transfected cells; host or cells: HEK cells

human GluN2D = biological target: T2, human GluN2D (Homo sapiens, UniProt O15399+Q05586); assay: Ca2+ fluorescence (fluo-8) assay in HEK cells expressing GluN2D; conditions: inhibition of Ca2+ response, glutamate and glycine 3 μM each, read-out: GluN2D IC50 (nM) ± SEM (n)
T2 construct: expressed in transfected cells; host or cells: HEK cells

human GluN2A = biological target: T3, human GluN2A (Homo sapiens, UniProt Q05586+Q12879); assay: Ca2+ fluorescence (fluo-8) assay in HEK cells expressing GluN2A; conditions: inhibition of Ca2+ response, glutamate and glycine 3 μM each, read-out: GluN2A IC50 (nM) ± SEM (n)
T3 construct: host or cells: HEK293, tetracycline-induced
Procedure: HEK293 cells expressing the human GRIN1/GRIN2A genes (Chantest Catalog #: CT6120) were grown as an adherent monolayer at 37°C, 5% CO2 in DMEM/Ham’s F12 + 10% tetracycline-screened FBS (Hyclone SH3007.03T) and 500 μg/ml G418. […] To prepare the cells for an experiment, they were rinsed with Dulbecco’s PBS (Ca^2+ and Mg^2+ free) and detached from the flask with TrypLE™ Express (Life Technologies, Carlsbad, CA) using the manufacturer’s recommended methods. Cells collected from the flask were washed twice in Ca^2+/Mg^2+-free Hanks Balanced Salt Solution + 20 mM HEPES (HBSS), and counted and assessed for viability with trypan blue. Washed cells were then dye-loaded by resuspending in Fluo-8/AM calcium sensitive dye plus Component B (AAT Bioquest, Sunnyvale, CA) diluted in HBSS. […]
To initiate an assay, 10 μl of test compound or buffer was added to each well of the cell plate and pre-incubated for 10 minutes in the dark. After 10 minutes, the cell plate was placed in a FDSS 6000 plate reader (Hamamatsu Photonics, Middlesex, NJ); baseline fluorescence readings were collected for 20 seconds. Next, 25 μl of agonist solution (3 μM glutamate, 3 μM glycine, and 1 mM Ca^2+ in HBSS) was added and the change in fluorescence was recorded for 3 minutes.
Results were calculated by computing the ratio of maximum fluorescence achieved during agonist-addition phase vs. baseline fluorescence.

For Ro 25–6981, the IC50 (human GluN2B) was 20 ± 1 nM, the IC50 (human GluN2D) was over 10000 nM and the IC50 (human GluN2A) was over 10000 nM.
